How the values were obtained:
[1] = biological target: KRAS-G12C/SOS1 interaction (Homo sapiens (Human), UniProt Q07889); assay: Protein-Protein Interaction (PPI) assay, SOS1-KRAS binding assay kit (HTRF); conditions: read-out: PPI Assay IC50, Table 1 (PPI IC50 < 100 nM), Tag1-SOS1 / Tag2-KRAS-G12C, 10 μM GTP
pERK in Hela cells = assay: Phospho-ERK (p-ERK) assay in Hela cells; conditions: read-out: p-ERK Assay IC50, Table 1, 1 hour with compound, β-actin normalized
Description: This Example illustrates that exemplary compounds of the present invention prevent KRas-mediated GTP nucleotide exchange mediated by SOS1 to inhibit KRas activity, thereby inhibiting the generation of the downstream effector pERK.
Hela cells (23,000/w) were seeded in a black clear flat bottom 96-well cell culture plate (Corning, #3904) and incubated at 37° C. overnight. At day 2, cells were dosed with compounds of Formula (I) with a 10 μM starting concentration and serially diluted 3× for a total of 9 concentrations. The cells were incubated for 1 hour with the compounds solubilized in DMSO at 37° C. Cells were immediately fixed by adding 100 μL of 8% formaldehyde to all wells in a fume hood and the plates were incubated for 1 hr at room temperature. The formaldehyde was discarded from the plates and washed 5 times and each time for 5 min with 200 μL of Triton Washing Solution (0.1% Triton in PBS) each time to permeabilize the cells. Cells were then blocked with 150 μL of Odyssey blocking buffer (LI-COR Biosciences #927-50010) at room temperature on a shaker. The blocking buffer was discarded and 50 μL of primary antibodies pERK (cell signaling Technology #4370; Rabbit, 1:500) and β-actin (AF5001; Mouse, 1:2000) diluted in Odyssey blocking buffer was added. […]
On day 3, the primary antibody solution was removed. […] The IC50 values were then calculated with the Graph pad Prism software. […]

Protein sequences, listed by entry. Tags and fused reporters are not part of them. Lines headed by an entry give the natural chain unless they say otherwise; changes in a name come on top.
UniProt Q07889, whole entry, stated change not applied: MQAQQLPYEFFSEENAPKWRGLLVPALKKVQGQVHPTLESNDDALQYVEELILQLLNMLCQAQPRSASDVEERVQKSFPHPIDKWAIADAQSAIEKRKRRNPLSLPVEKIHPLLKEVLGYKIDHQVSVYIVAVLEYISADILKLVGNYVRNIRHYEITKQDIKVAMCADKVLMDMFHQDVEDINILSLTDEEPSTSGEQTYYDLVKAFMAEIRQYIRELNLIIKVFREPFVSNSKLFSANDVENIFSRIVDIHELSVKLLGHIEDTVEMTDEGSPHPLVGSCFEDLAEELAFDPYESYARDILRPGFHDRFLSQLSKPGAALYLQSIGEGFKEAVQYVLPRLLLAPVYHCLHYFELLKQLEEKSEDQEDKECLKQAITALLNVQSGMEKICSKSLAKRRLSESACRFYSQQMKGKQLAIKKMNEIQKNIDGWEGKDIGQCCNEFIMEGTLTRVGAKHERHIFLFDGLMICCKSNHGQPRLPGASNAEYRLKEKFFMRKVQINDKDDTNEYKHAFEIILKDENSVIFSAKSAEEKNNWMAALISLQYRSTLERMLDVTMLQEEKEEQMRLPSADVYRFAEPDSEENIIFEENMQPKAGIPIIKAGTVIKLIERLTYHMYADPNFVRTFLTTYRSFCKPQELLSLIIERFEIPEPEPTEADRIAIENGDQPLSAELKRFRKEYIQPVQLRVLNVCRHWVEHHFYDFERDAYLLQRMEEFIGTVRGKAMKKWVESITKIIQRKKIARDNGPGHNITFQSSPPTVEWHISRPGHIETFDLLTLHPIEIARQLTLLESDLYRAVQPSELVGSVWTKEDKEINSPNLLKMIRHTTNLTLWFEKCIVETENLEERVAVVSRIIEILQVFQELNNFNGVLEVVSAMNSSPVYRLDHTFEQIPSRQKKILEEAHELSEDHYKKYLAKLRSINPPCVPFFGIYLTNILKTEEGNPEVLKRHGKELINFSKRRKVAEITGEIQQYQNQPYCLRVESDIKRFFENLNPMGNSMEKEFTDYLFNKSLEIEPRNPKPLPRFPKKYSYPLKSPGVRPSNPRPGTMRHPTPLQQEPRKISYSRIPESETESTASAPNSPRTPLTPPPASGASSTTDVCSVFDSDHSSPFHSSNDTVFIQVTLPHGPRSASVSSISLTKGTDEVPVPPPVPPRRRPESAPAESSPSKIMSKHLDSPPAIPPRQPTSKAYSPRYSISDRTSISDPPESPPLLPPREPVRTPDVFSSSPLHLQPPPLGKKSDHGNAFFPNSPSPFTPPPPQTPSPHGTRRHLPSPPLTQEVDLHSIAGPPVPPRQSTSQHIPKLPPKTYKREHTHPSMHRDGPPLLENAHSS

| SMILES | IC50 [1] [nM] | IC50 (pERK in Hela cells) [nM] |
| --- | --- | --- |
| C[C@@H](Nc1ncnc2c1cc(N1CCOCCC1=O)c1nncn12)c1cccc(C(F)F)c1F | < 100 | < 100 |
| CC[C@@H]1CN(c2cc3c(N[C@H](C)c4cccc(C(F)F)c4F)ncnc3n3cnnc23)C(=O)CO1 | < 100 | < 100 |

From patent publication US20250230159A1, “FUSED HETEROCYCLIC COMPOUNDS AS MODULATORS OF RAS SIGNALLING” (Shenzhen Ionova Life Science Co., Ltd., priority 2022, published 2025)
